Experiments:
[1] = biological target: human muscarinic M1 receptor (Homo sapiens, UniProt P11229); test: Alphascreen Surefire phospho-ERK1/2 functional assay, M1; conditions: CHO cells stably expressing human M1; for pEC50 M1: agonist 5 min, 37° C.; for % Emax cf. ACh (M1): relative to ACh
[2] = biological target: human muscarinic M4 receptor (Homo sapiens, UniProt P08173); test: Alphascreen Surefire phospho-ERK1/2 functional assay, M4; type: cell-based; conditions: CHO cells stably expressing human M4; for pEC50 M4: agonist 5 min, 37° C.; for % Emax cf. ACh (M4): relative to ACh

Chains of the proteins cited; added tags and fusions are not shown.
UniProt P11229, whole entry: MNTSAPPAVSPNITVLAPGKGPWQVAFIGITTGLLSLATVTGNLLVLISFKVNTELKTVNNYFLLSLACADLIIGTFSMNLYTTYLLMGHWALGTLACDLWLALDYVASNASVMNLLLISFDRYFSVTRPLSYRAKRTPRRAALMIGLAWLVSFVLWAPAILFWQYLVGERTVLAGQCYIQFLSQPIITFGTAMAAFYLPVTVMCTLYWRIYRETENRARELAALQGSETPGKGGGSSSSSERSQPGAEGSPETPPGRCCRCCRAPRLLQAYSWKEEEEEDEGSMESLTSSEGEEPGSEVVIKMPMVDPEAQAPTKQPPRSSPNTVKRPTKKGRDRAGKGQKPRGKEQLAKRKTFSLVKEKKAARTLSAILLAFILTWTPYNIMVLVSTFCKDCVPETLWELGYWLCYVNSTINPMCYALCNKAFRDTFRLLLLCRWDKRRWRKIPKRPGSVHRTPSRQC
UniProt P08173, whole entry: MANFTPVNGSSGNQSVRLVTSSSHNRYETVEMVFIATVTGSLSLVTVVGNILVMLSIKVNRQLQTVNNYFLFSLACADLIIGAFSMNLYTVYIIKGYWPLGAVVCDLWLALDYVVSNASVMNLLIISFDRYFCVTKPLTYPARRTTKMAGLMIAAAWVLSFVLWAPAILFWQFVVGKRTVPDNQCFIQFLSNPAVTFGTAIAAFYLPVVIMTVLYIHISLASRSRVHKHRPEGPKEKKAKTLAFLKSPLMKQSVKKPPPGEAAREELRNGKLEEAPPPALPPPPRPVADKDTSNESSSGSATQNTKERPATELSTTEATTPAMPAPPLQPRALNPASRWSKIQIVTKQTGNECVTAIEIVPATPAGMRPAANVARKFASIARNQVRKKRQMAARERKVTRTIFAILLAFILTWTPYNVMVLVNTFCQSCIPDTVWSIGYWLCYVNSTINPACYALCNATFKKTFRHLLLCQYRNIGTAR

Row | SMILES | pEC50 M1 [1] | % Emax cf. ACh (M1) [1] [%] | pEC50 M4 [2] | % Emax cf. ACh (M4) [2] [%]
1 | CCOC(=O)N1C[C@@H]2CC[C@H]1CC2N1C[C@@H]2[C@H](C1)[C@H]2C(=O)N(CC)CC (single isomer, unassigned) | 6.13 | 89 | 4.70 | 4
2 | CCOC(=O)N1CCCC(N2C[C@@H]3[C@H](C2)[C@H]3C(=O)N(CC)CC)CC1 (single isomer, unassigned) [11-1 Isomer 1] | 7.98 | 97 | 6.90 | 84
3 | CCOC(=O)N1C[C@H]2CC[C@@H]1CC2N1C[C@@H]2[C@H](C1)[C@H]2C(=O)N(C)CC (single isomer, unassigned) | 5.83 | 104 | 5.49 | 29
4 | CCOC(=O)[C@H]1[C@@H]2CN(C3C4CC3CN(C(=O)OCC)C4)C[C@@H]21 (single isomer, unassigned) [5-1 Isomer 1] | 5.21 | 78 | 6.53 | 81
5 | CCOC(=O)N1CCC2(CC(N3C[C@@H]4[C@H](C3)[C@H]4C(=O)N3CCCOCC3)C2)C1 (single isomer, unassigned) [2-17 Isomer 1] | 6.28 | 44 | 4.70 | 13
6 | CCOC(=O)N1CCC2(CC(N3C[C@@H]4[C@H](C3)[C@H]4C(=O)N(C)OC)C2)C1 (single isomer, unassigned) | 6.79 | 129 | 6.45 | 95
7 | CCOC(=O)N1CC2CCC1CC2N1C[C@@H]2[C@H](C1)[C@H]2C(=O)N(CC)OC (single isomer, unassigned) [8-10 Isomer 2] | 6.03 | 123 | 4.70 | 16
8 | CCOC(=O)N1CCC2(CC(N3C[C@@H]4[C@H](C3)[C@H]4C(=O)NC3(C)CCC3)C2)C1 (single isomer, unassigned) [2-4 Isomer 1] | 5.64 | 49 | 5.97 | 37
9 | CCN(CC)C(=O)[C@H]1[C@@H]2CN(C3CC4CCC3CN4C(=O)OC)C[C@@H]21 (single isomer, unassigned) [8-6 Isomer 2] | 6.45 | 39 | 4.70 | 2
10 | CCOC(=O)N1CCC2(CC(N3C[C@@H]4[C@H](C3)[C@H]4C(=O)N3CCCC[C@H]3C)C2)C1 (single isomer, unassigned) [2-14 Isomer 1] | 6.49 | 80 | 5.91 | 33
11 | CCOC(=O)N1CCC2(CC(N3C[C@@H]4[C@H](C3)[C@H]4C(=O)N(CC)C(C)C)C2)C1 (single isomer, unassigned) | 6.39 | 57 | 5.96 | 28
12 | CCOC(=O)N1CCCC(N2C[C@@H]3[C@H](C2)[C@H]3C(=O)N(CC)CC)CC1 (single isomer, unassigned) [11-1 Isomer 2] | 7.43 | 94 | 6.33 | 62
13 | CCOC(=O)N1CCC2(CC(N3C[C@@H]4[C@H](C3)[C@H]4C(=O)NCC(C)C)C2)C1 (single isomer, unassigned) [2-2 Isomer 1] | 6.41 | 69 | 5.62 | 43
14 | CCN(C(=O)[C@H]1[C@@H]2CN(C3CC4(CCN(C(=O)OC)C4)C3)C[C@@H]21)C(C)C (single isomer, unassigned) | 5.93 | 66 | 4.70 | 56

— US10329278B2, “Pharmaceutical compounds” (Heptares Therapeutics Limited, priority 2017, dated 2019)
